scFv variants of Ab-91 (heavy chain) against a SARS-CoV-2 spike peptide

From the AlphaSeq antibody data of Engelhart et al. 2022 (doi:10.1038/s41597-022-01779-4), copy in the FLAb collection.

Binding partner: SARS-CoV-2 spike HR2 peptide, sequence PDVDLGDISGINAS.

Each scFv is VL, a (GGGGS)3 linker, VH, as in the parent Ab-91, and differs from it in the CDRs of the heavy chain only.
VL: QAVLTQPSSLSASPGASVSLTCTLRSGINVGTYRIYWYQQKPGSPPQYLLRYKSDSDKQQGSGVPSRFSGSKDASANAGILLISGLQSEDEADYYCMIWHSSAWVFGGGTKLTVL
VH: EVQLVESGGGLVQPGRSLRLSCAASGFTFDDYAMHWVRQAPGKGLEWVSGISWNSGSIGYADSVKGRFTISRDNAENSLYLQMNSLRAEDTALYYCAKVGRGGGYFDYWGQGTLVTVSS

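The parent was found by panning a naive human phage display library on the peptide. Variants in AAYL51 differ from the parent at up to three CDR positions; double and triple changes were sampled at random. The assay is AlphaSeq: two haploid yeast populations carry antibody and antigen on their surface. Binding brings cells together so that they mate, and sequencing counts the barcode pairs among the diploids. A regression on co-assayed BCL2-family reference pairs converts the normalised counts of each replicate to an apparent Kd. There are three technical replicates.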

Each variant is given by its three heavy chain CDRs, as the data file delimits them; those of the parent are GFTFDDYAMH, GISWNSGSIGYADSVK, VGRGGGYFDY. Affinities are written as log10 Kd with Kd in nM; a lower number is a better binder. Replicates are averaged; those with no signal do not enter the mean. An entry "ND" has no value in the source: the pair was not observed among the diploids in that replicate. This suggests poor binding but is not conclusive. For reference, the parent read 1.86 as the reference entry and 0.88 as a member of this library.

| CDR-H1 | CDR-H2 | CDR-H3 | replicates, log10 nM | mean, log10 nM | control signals |
|---|---|---|---|---|---|
| GFVFDDYAMH | GISENSGSIGYADSVK | VGRGGGYWDY | ND ND ND | ND | 0 of 9 |
| GFTFDDYAMH | NISWNSGSIGYAHLVK | VGRGGGYFDY | ND ND ND | ND | 0 of 9 |
| GFTFDDYAMH | GIRWNSGSYGYADSVK | VGRGGGYFDY | ND ND ND | ND | 0 of 9 |
| GGTFDDAAMH | GICWNSGSIGYADSVK | VGRGGGYFDY | 4.21 ND ND | 4.21 | 3 of 9 (3.51) |
| GFTFDDYAMH | KISWNSGCIGEADSVK | VGRGGGYFDY | ND ND ND | ND | 1 of 9 (3.09) |
| GFTFFDYAMH | GISWNSGSIGYADSWK | VGRGGGYFDY | ND ND ND | ND | 1 of 9 (4.17) |
| GFNFDDYMMH | GISWNSGSIGYADSVK | VGRGGPYFDY | 4.03 ND 5.27 | 4.65 | 7 of 9 (4.87) |
| YFTFDDYAMH | GISWNSGSKGYADSVK | VGRGGGYCDY | 3.41 6.10 ND | 4.75 | 4 of 9 (4.16) |
| GFTFDDYAMH | GVSWNSGPIGYADSVK | VGRGGGYFHY | ND 3.41 ND | 3.41 | 0 of 9 |
| GFTFDDYAMH | GYSWNSGSIGYWDSVK | VGRGEGYFDY | 4.63 ND 4.86 | 4.75 | 2 of 9 (5.51) |
| GFPFDFYAMH | GISWNSGSIGYADSVK | VGRGGGYVDY | ND 5.26 4.90 | 5.08 | 2 of 9 (3.59) |
| GFTFDDYAMT | GISWNSGSIGYADSVK | VMLGGGYFDY | 3.50 ND ND | 3.50 | 4 of 9 (4.22) |
| GFTFDDYAMH | GISWNSINIGYADSVK | VGSGGGYFDY | 2.02 1.92 1.60 | 1.85 | 5 of 9 (4.67) |
| GFTFDDYAPH | GISWNSGSIGYADSDK | AGRGGGYFDY | ND ND ND | ND | 3 of 9 (4.84) |
| GFTFDMYAMH | GISWNSGSIGYALSVK | VGRGGGYFDK | ND ND ND | ND | 1 of 9 (2.84) |
| GFTFDDYAMQ | GISWNSGSIGYGDSVK | VGRGGIYFDY | 4.47 ND 4.89 | 4.68 | 3 of 9 (4.54) |
| GFNFDDYAMH | GISWNSGSIGYADSYK | VGRGWGYFDY | ND ND ND | ND | 1 of 9 (4.17) |
| GFTFDAYAMH | GISWNSGSINYADSVK | VGRYGGYFDY | 4.46 ND 4.32 | 4.39 | 6 of 9 (5.06) |
| QFTFDDYAMH | GISWNSGSIGYADSVK | VGRPGGKFDY | 4.85 4.89 ND | 4.87 | 6 of 9 (4.79) |
| GATFDDYAMH | GISWNSKSIGYADSVG | VGRGGGYFDY | 3.98 ND 4.42 | 4.20 | 4 of 9 (3.47) |
| GFTFDDYAMH | GISWNSGSIFPADSVK | VGRGGGRFDY | ND ND ND | ND | 0 of 9 |
| GFTFDDYAMF | GISWNSASIGYADSVK | VGRGGGYFDY | ND ND ND | ND | 1 of 9 (4.07) |
| GFTFDDYNMK | GISWNSGSIGYADSVK | VGDGGGYFDY | ND ND ND | ND | 0 of 9 |
| GFTFDDYRMH | GCSWNSGSIGYADSVK | VGHGGGYFDY | 3.82 3.98 4.73 | 4.18 | 2 of 9 (3.62) |
| GFTFDDYAMH | GISWNSESIGYRDSVK | VSRGGGYFDY | ND ND ND | ND | 0 of 9 |
| GFTFDDYAMH | GIGWNSGSRGYADSVK | VGRGGFYFDY | ND ND ND | ND | 0 of 9 |
| GFTFDDYAGH | MISWNSGSIGYADSVK | VGSGGGYFDY | ND ND ND | ND | 1 of 9 (4.36) |
| HFTFDDYAMH | GISWNSGSIKYADSVK | VGRGGGYFDY | 4.03 4.98 5.11 | 4.71 | 4 of 9 (5.18) |
| GFTFDDYAMH | GISKNSGSIGYADSVK | VGRWGGYFDY | 5.03 ND ND | 5.03 | 2 of 9 (4.92) |
| GFTFDVDAMV | GISWNSGSIGYADSVK | VGRGGGYFDY | 4.89 ND ND | 4.89 | 1 of 9 (3.60) |
| GFTFDDYAMH | GCSWNSGSIGYADSVK | VGRGQGYSDY | ND ND ND | ND | 0 of 9 |
| GFTFDSWAMH | GISWNSGSIGYQDSVK | VGRGGGYFDY | 2.25 2.27 2.35 | 2.29 | 1 of 9 (5.30) |
| GFTFYDYTMH | GISWNSGSIGYADSVK | NGRGGGYFDY | 5.05 ND ND | 5.05 | 7 of 9 (5.22) |
| PFTFDDYAMH | GISWRSGSIGYADIVK | VGRGGGYFDY | ND 5.05 5.50 | 5.27 | 8 of 9 (4.68) |
| GFIFDDYAMH | GISWNSGSIGYHDSVK | VGRGGGHFDY | ND ND ND | ND | 1 of 9 (3.52) |
| GFTFDDYAMS | GISINSGSIGYADSVK | VGRGGGYFDY | 4.46 4.91 5.10 | 4.82 | 5 of 9 (5.07) |
| GFTQDDYAMH | GISWNSGSIGYAYSVK | VGRCGGYFDY | 4.22 ND ND | 4.22 | 1 of 9 (4.70) |
| GFTFPDYAMH | GISWNGGSIGYADSVK | VGGGGGYFDY | 1.69 1.69 1.31 | 1.56 | 9 of 9 (5.08) |
| GFTFDDYAMH | TISWNSGSIGYAASVK | VQRGGGYFDY | 3.78 ND ND | 3.78 | 2 of 9 (3.93) |
| GFGFDDYAMH | GISWSSGSIGYADSVT | VGRGGGYFDY | ND 4.90 ND | 4.90 | 1 of 9 (4.99) |
| GFTFDDYAMH | GISWNSGSIGYLDSVK | VGRGGGYFPY | ND ND ND | ND | 0 of 9 |
| GFTFDDYAIH | GISWNSGSIGYWMSVK | VGRGGGYFDY | ND 5.77 4.95 | 5.36 | 1 of 9 (4.07) |
| QFTFDDYAMH | GISWNGGSIGYADSVK | VHRGGGYFDY | ND ND ND | ND | 1 of 9 (4.30) |
| PFTFDDYAMH | GIEWNSGSIGYADSVK | YGRGGGYFDY | 3.38 ND ND | 3.38 | 2 of 9 (4.74) |
| GFTNDDYAME | GISWNSGSIGYADSVK | VGRYGGYFDY | ND ND ND | ND | 0 of 9 |
| GFTFDDYAMH | WISYNSGSIGYGDSVK | VGRGGGYFDY | ND ND ND | ND | 0 of 9 |
| GFTFDDYAMH | GISWNSPSIGCADFVK | VGRGGGYFDY | 5.08 ND ND | 5.08 | 1 of 9 (4.20) |
| GFTFDDYAMH | GISWNSGSIGYGDSVK | VQIGGGYFDY | 4.04 ND ND | 4.04 | 1 of 9 (4.61) |
| GFTFDDYAMH | VISWNMGSIGYACSVK | VGRGGGYFDY | ND 3.28 ND | 3.28 | 0 of 9 |

The first 4 variants above that were never detected:

| CDR-H1 | CDR-H2 | CDR-H3 | replicates, log10 nM | mean, log10 nM | control signals |
|---|---|---|---|---|---|
| GFVFDDYAMH | GISENSGSIGYADSVK | VGRGGGYWDY | ND ND ND | ND | 0 of 9 |
| GFTFDDYAMH | NISWNSGSIGYAHLVK | VGRGGGYFDY | ND ND ND | ND | 0 of 9 |
| GFTFDDYAMH | GIRWNSGSYGYADSVK | VGRGGGYFDY | ND ND ND | ND | 0 of 9 |
| GFTFDDYAMH | KISWNSGCIGEADSVK | VGRGGGYFDY | ND ND ND | ND | 1 of 9 (3.09) |

Empty control strains, which show no peptide, gave a signal in 21% of pairings with library AAYL51; the median was 4.54 and 95% of these signals were weaker than 3.26. No background was subtracted. Also given: how often the same scFv was detected with the empty control strains, with their mean in brackets.